What follows are compounds tested against EGFR T790M L858R (Homo sapiens, UniProt P00533, L858R/T790M) (assay: biochemical). Conditions: EGFR(T790M/L858R) Ki (μM), 5 μM ATP, 30 min, room temperature; apparent Ki (Morrison) converted by Cheng-Prusoff, Km of ATP 1.3 μM.

Chains of the proteins cited; added tags and fusions are not shown. Residues count along the entry.
UniProt P00533, 25-1210 T790M/L858R limits assumed: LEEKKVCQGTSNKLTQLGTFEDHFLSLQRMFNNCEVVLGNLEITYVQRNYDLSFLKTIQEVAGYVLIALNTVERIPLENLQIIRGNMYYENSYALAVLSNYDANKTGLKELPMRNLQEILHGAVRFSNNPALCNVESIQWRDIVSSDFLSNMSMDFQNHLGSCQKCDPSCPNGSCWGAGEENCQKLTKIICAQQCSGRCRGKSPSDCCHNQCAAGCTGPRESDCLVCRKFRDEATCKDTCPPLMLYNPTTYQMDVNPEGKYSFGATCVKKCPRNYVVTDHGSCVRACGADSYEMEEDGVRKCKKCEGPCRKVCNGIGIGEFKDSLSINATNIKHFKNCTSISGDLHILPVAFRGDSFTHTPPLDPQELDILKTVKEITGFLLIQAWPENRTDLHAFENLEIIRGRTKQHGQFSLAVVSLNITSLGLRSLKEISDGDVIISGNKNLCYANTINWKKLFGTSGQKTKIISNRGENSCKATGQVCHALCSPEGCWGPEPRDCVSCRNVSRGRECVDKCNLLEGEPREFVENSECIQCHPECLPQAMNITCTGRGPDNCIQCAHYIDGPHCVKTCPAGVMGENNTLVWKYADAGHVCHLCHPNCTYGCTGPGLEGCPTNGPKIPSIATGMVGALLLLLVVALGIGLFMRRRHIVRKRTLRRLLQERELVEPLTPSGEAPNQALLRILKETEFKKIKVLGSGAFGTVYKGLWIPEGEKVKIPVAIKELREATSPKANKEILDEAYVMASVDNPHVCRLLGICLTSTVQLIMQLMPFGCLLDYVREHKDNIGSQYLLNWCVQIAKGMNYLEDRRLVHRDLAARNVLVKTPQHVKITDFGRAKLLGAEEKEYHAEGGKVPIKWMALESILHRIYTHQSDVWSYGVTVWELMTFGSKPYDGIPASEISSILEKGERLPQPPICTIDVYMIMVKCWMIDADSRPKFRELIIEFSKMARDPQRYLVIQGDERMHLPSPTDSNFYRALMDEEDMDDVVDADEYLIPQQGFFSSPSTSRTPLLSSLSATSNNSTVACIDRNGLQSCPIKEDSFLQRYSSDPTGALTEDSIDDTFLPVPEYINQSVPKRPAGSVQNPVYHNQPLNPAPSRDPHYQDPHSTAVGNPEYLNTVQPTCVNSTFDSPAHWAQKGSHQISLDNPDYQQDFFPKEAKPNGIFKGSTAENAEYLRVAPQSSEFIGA

Compared with Cc1n[nH]c(C)c1-c1nccc(Nc2cc3c(cn2)nc(C)n3C(C)C)n1 [Example 362, N-(2-(3,5-Dimethyl-1H-pyrazol-4-yl)pyrimidin-4-yl)-1-isopropyl-2-methyl-1H-imidazo[4,5-c]pyridin-6-amine], Cc1n[nH]c(-c2nccc(Nc3cc4c(cn3)nc(C)n4C(C)C)n2)n1 [Example 368, 1-Isopropyl-2-methyl-N-(2-(3-methyl-1H-1,2,4-triazol-5-yl)pyrimidin-4-yl)-1H-imidazo[4,5-c]pyridine-6-amine] is 3-fold higher in Ki: 0.355 µM for the first, 1.08 µM for the second. The first binds more tightly here.

Compared with Cc1nc2cnc(Nc3ccnc(-c4cn(C)nc4N)n3)cc2n1C(C)C [Example 363, N-(2-(3-Amino-1-methyl-1H-pyrazol-4-yl)pyrimidin-4-yl)-1-isopropyl-2-methyl-1H-imidazo[4,5-c]pyridin-6-amine], Cc1nc2cnc(Nc3ccnc(-c4cnn(C)c4)n3)cc2n1C(C)C [Example 365, 1-Isopropyl-2-methyl-N-(2-(1-methyl-1H-pyrazol-4-yl)pyrimidin-4-yl)-1H-imidazo[4,5-c]pyridin-6-amine] is 1.5-fold higher in Ki: 0.0487 µM for the first, 0.0739 µM for the second. The first binds more tightly here.

Going from Cc1nc2cnc(Nc3ccnc(N4CCCC(c5ccn[nH]5)C4)n3)cc2n1C(C)C (centres unmarked) [Example 364, N-(2-(3-(1H-Pyrazol-5-yl)piperdine-1-yl)pyrimidin-4-yl)-1-isopropyl-2-methyl-1H-imidazo[4,5-c]pyridin-6-amine] to Cc1nc2cnc(Nc3ccnc(-n4nccn4)n3)cc2n1C(C)C [Example 367, N-(2-(2H-1,2,3-triazol-2-yl)pyrimidin-4-yl)-1-isopropyl-2-methyl-1H-imidazo[4,5-c]pyridine-6-amine], the Ki rises from 0.0939 µM to 0.433 µM (4.6-fold). The first binds more tightly here.

Going from Cc1nc2cnc(Nc3ccnc(-c4cnoc4)n3)cc2n1C(C)C [Example 366] to Cc1nc2cnc(Nc3ccnc(-c4cnn(CC(N)=O)c4)n3)cc2n1C(C)C [Example 413, 2-(4-(4-((1-isopropyl-2-methyl-1H-imidazo[4,5-c]pyridin-6-yl)amino)pyrimidin-2-yl)-1H-pyrazol-1-yl)acetamide], the Ki rises from 0.0467 µM to 0.0774 µM (1.7-fold). The first binds more tightly here.

CCC(C)n1cc(C(=O)NC2CCCOC2)c2cnc(Nc3ccnc(N4CCC(O)C(C)(C)C4)n3)cc21 (centres unmarked) [Example 374, 1-(sec-butyl)-6-((2-(4-hydroxy-3,3-dimethylpiperidin-1-yl)pyrimidin-4-yl)amino)-N-(tetrahydro-2H-pyran-3-yl)-lH-pyrrolo[3,2-c]pyridine-3-carboxamide] and CO[C@@H]1CCN(c2nccc(Nc3cc4c(cn3)c(C(=O)NC3CCOCC3)cn4C(C)C)n2)C[C@@H]1F [Example 380, 6-((2-((3S,4R)-3-fluoro-4-methoxypiperidin-1-yl)pyrimidin-4-yl)amino)-1-isopropyl-N-(tetrahydro-2H-pyran-4-yl)-1H-pyrrolo [3,2-c]pyridine-3-carboxamide] are within 1.5-fold of each other in Ki: 0.00159 µM for the first, 0.00143 µM for the second.

First: CCNC(=O)c1cn(C(C)C)c2cc(Nc3ccnc(-c4cnn(S(=O)(=O)N(C)C)c4)n3)ncc12 [Example 377, 6-((2-(1-(N,N-dimethylsulfamoyl)-1H-pyrazol-4-yl)pyrimidin-4-yl)amino)-N-ethyl-1-isopropyl-1H-pyrrolo[3,2-c]pyridine-3-carboxamide]
Second: Cc1nc2cnc(Nc3ccnc(-c4cnn(S(=O)(=O)N(C)C)c4)n3)cc2n1C(C)C [Example 397, 4-(4-((1-isopropyl-2-methyl-1H-imidazo[4,5-c]pyridin-6-yl)amino)pyrimidin-2-yl)-N,N-dimethyl-1H-pyrazole-1-sulfonamide]
The Ki of the first is 2.2-fold lower: 0.0028 µM for the first, 0.00621 µM for the second. The first binds more tightly here.

Going from CO[C@H]1CCN(c2nccc(Nc3cc4c(cn3)c(C(=O)NC3CCOCC3)cn4C(C)C)n2)C[C@H]1F [Example 381, 6-((2-((3R,4S)-3-fluoro-4-methoxypiperidin-1-yl)pyrimidin-4-yl)amino)-1-isopropyl-N-(tetrahydro-2H-pyran-4-yl)-1H-pyrrolo [3,2-c]pyridine-3-carboxamide] to COC1CCN(c2nccc(Nc3cc4c(cn3)c(-c3cnn(CCN5CCOCC5)c3)cn4C(C)C)n2)CC1 [Example 412, 1-isopropyl-N-(2-(4-methoxypiperidin-1-yl)pyrimidin-4-yl)-3-(1-(2-morpholinoethyl)-1H-pyrazol-4-yl)-1H-pyrrolo[3,2-c] pyridin-6-amine], the Ki rises from 0.00178 µM to 0.00307 µM (1.7-fold).

Going from CC(=O)N(C)c1cn(C(C)C)c2cc(Nc3ccnc(-c4cnn(S(=O)(=O)C5CC5)c4)n3)ncc12 [Example 387, N-(6-((2-(1-(cyclopropylsulfonyl)-1H-pyrazol-4-yl)pyrimidin-4-yl)amino)-1-isopropyl-1H-pyrrolo[3,2-c]pyridin-3-yl)-N-methylacetamide] to CC(C)n1cc(N(C)C(=O)CO)c2cnc(Nc3ccnc(-c4cnn(S(=O)(=O)C5CC5)c4)n3)cc21 [Example 390, N-(6-((2-(1-(cyclopropylsulfonyl)-1H-pyrazol-4-yl)pyrimidin-4-yl)amino)-1-isopropyl-1H-pyrrolo[3,2-c]pyridin-3-yl)-2-hydroxy-N-methylacetamide], the Ki rises from 0.0207 µM to 0.0412 µM (2-fold). The first binds more tightly here.

Compared with CC(C)n1cc(C(=O)NC2COC2)c2cnc(Nc3ccnc(-c4cnn(S(=O)(=O)N5CCCC5)c4)n3)cc21 [Example 388, 1-isopropyl-N-(oxetan-3-yl)-6-((2-(1-(pyrrolidin-1-ylsulfonyl)-1H-pyrazol-4-yl)pyrimidin-4-yl)amino)-1H-pyrrolo[3,2-c]pyridine-3-carboxamide], CC(C)n1cc(NC(=O)C(C)(C)O)c2cnc(Nc3ccnc(-c4cnn(S(=O)(=O)C5CC5)c4)n3)cc21 [Example 391, N-(6-((2-(1-(cyclopropylsulfonyl)-1H-pyrazol-4-yl)pyrimidin-4-yl)amino)-1-isopropyl-1H-pyrrolo[3,2-c]pyridin-3-yl)-2-hydroxy-2-methylpropanamide] is 9.7-fold lower in Ki: 0.0146 µM for the first, 0.0015 µM for the second.

Compared with CCS(=O)(=O)n1cc(-c2nccc(Nc3cc4c(cn3)c(-c3cnn(CCS(C)(=O)=O)c3)cn4C(C)C)n2)cn1 [Example 392, N-(2-(1-(ethylsulfonyl)-1H-pyrazol-4-yl)pyrimidin-4-yl)-1-isopropyl-3-(1-(2-(methylsulfonyl)ethyl)-1H-pyrazol-4-yl)-1H-pyrrolo[3,2-c]pyridin-6-amine], CCn1cc(S(=O)(=O)n2cc(-c3nccc(Nc4cc5c(cn4)nc(C)n5C(C)C)n3)cn2)cn1 [Example 407, N-(2-(1-((1-ethyl-1H-pyrazol-4-yl)sulfonyl)-1H-pyrazol-4-yl)pyrimidin-4-yl)-1-isopropyl-2-methyl-1H-imidazo[4,5-c] pyridin-6-amine] is 120-fold higher in Ki: 0.00166 µM for the first, 0.201 µM for the second. The first binds more tightly here.

First: Cc1nc2cnc(Nc3ccnc(-c4cnn(S(=O)(=O)c5ccn(C)n5)c4)n3)cc2n1C(C)C [Example 394, 1-isopropyl-2-methyl-N-(2-(1-((1-methyl-1H-pyrazol-3-yl)sulfonyl)-1H-pyrazol-4-yl)pyrimidin-4-yl)-1H-imidazo [4,5-c]pyridin-6-amine]
Second: Cc1nc2cnc(Nc3ccnc(-c4cnn(S(=O)(=O)C(C)C)c4)n3)cc2n1C(C)C [Example 409, 1-isopropyl-N-(2-(1-(isopropylsulfonyl)-1H-pyrazol-4-yl)pyrimidin-4-yl)-2-methyl-1H-imidazo[4,5-c]pyridin-6-amine]
The Ki of the first is 39-fold higher: 0.0761 µM for the first, 0.00195 µM for the second. The second binds more tightly here.

First: Cc1n[nH]cc1-c1nccc(Nc2cc3c(cn2)nc(C)n3C(C)C)n1 [Example 399, 1-isopropyl-2-methyl-N-(2-(3-methyl-1H-pyrazol-4-yl)pyrimidin-4-yl)-1H-imidazo[4,5-c]pyridin-6-amine]
Second: Cc1nn(S(=O)(=O)C2CC2)cc1-c1nccc(Nc2cc3c(cn2)nc(C)n3C(C)C)n1 [Example 400, N-(2-(1-(cyclopropylsulfonyl)-3-methyl-1H-pyrazol-4-yl)pyrimidin-4-yl)-1-isopropyl-2-methyl-1H-imidazo[4,5-c]pyridin-6-amine]
The Ki of the first is 2.8-fold higher: 0.0604 µM for the first, 0.0219 µM for the second. The second binds more tightly here.

Going from COC1CCN(c2nccc(Nc3cc4c(cn3)c(-c3cn[nH]c3)cn4C(C)C)n2)CC1 [Example 401, 1-isopropyl-N-(2-(4-methoxypiperidin-1-yl)pyrimidin-4-yl)-3-(1H-pyrazol-4-yl)-1H-pyrrolo[3,2-c]pyridin-6-amine] to COC1CCN(c2nccc(Nc3cc4c(cn3)c(-c3c[nH]cn3)cn4C(C)C)n2)CC1 [Example 403, 3-(1H-imidazol-4-yl)-1-isopropyl-N-(2-(4-methoxypiperidin-1-yl)pyrimidin-4-yl)-1H-pyrrolo[3,2-c]pyridin-6-amine], the Ki rises from 0.00195 µM to 0.00728 µM (3.7-fold). The first binds more tightly here.

COC1CCN(c2nccc(Nc3cc4c(cn3)c(-c3cnn(CCO)c3)cn4C(C)C)n2)CC1 [Example 402, 2-(4-(1-isopropyl-6-((2-(4-methoxypiperidin-1-yl)pyrimidin-4-yl)amino)-1H-pyrrolo[3,2-c]pyridin-3-yl)-1H-pyrazol-1-yl)ethanol] and COC1CCN(c2nccc(Nc3cc4c(cn3)c(-c3cnn(CC(N)=O)c3)cn4C(C)C)n2)CC1 [Example 410, 2-(4-(1-isopropyl-6-((2-(4-methoxypiperidin-1-yl)pyrimidin-4-yl)amino)-1H-pyrrolo[3,2-c]pyridin-3-yl)-1H-pyrazol-1-yl)acetamide] are within 1.5-fold of each other in Ki: 0.00231 µM for the first, 0.00207 µM for the second.

Going from CCOCCS(=O)(=O)n1cc(-c2nccc(Nc3cc4c(cn3)nc(C)n4C(C)C)n2)cn1 [Example 405, N-(2-(1-((2-ethoxyethyl)sulfonyl)-1H-pyrazol-4-yl)pyrimidin-4-yl)-1-isopropyl-2-methyl-1H-imidazo[4,5-c]pyridin-6-amine] to Cc1nc2cnc(Nc3ccnc(-c4cnn(C5CN(CC(F)(F)F)C5)c4)n3)cc2n1C(C)C [Example 414, 1-isopropyl-2-methyl-N-(2-(1-(1-(2,2,2-trifluoroethyl)azetidin-3-yl)-1H-pyrazol-4-yl)pyrimidin-4-yl)-1H-imidazo[4,5-c] pyridin-6-amine], the Ki rises from 0.00561 µM to 0.19 µM (34-fold).

Going from CC(C)n1c(CO)nc2cnc(Nc3ccnc(-c4cnn(C(F)F)c4)n3)cc21 [Example 408, (6-((2-(1-(difluoromethyl)-1H-pyrazol-4-yl)pyrimidin-4-yl)amino)-1-isopropyl-1H-imidazo[4,5-c]pyridin-2-yl)methanol] to COC1CCN(c2nccc(Nc3cc4c(cn3)c(-c3ccn(CC(N)=O)n3)cn4C(C)C)n2)CC1 [Example 411, 2-(3-(1-isopropyl-6-((2-(4-methoxypiperidin-1-yl)pyrimidin-4-yl)amino)-1H-pyrrolo[3,2-c]pyridin-3-yl)-1H-pyrazol-1-yl) acetamide], the Ki falls from 0.0497 µM to 0.00259 µM (19-fold). The second binds more tightly here.

— patent US9890152B2 (Genentech, Inc., priority 2012, dated 2018)
